In patent US9822157B2 (priority 2013, dated 2017):

Molecular target: T1, human ferroportin (Homo sapiens, UniProt Q9NP59)
T1 sequence (Q9NP59 1-571): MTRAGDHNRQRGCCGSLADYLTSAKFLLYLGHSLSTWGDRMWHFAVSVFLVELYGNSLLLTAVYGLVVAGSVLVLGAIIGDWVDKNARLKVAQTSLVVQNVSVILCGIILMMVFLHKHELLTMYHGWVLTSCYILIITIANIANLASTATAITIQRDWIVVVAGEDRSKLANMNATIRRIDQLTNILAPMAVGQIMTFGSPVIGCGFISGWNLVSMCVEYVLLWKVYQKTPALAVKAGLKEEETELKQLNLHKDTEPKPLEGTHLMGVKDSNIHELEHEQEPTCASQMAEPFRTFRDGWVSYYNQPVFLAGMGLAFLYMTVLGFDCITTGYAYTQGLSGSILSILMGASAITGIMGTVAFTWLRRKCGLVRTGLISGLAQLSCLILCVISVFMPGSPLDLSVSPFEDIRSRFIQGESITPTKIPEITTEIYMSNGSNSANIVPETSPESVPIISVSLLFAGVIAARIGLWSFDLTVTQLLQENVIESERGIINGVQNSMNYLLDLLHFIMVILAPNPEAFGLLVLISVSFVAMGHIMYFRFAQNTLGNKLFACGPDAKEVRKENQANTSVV
Type: cell-based
Source text: The cDNA encoding the human ferroportin (SLC40A1) was cloned from a cDNA clone from Origene (NM_014585). The DNA encoding the ferroportin was amplified by PCR using primers also encoding terminal restriction sites for subcloning, but without the termination codon. The ferroportin receptor was subcloned into a mammalian GFP expression vector containing a neomycin (G418) resistance marker in such that the reading frame of the ferroportin was fused in frame with the GFP protein. The fidelity of the DNA encoding the protein was confirmed by DNA sequencing. HEK293 cells were used for transfection of the ferroportin-GFP receptor expression plasmid. The cells were grown according to standard protocol in growth medium and transfected with the plasmids using Lipofectamine (manufacturer's protocol, Invitrogen). […] The cells were propagated and frozen in aliquots.
Compound was added to desired final concentration for at least 18 hours in the incubator. […] Compound was added to desired final concentration for at least 18 hours but no more than 24 hours in the incubator.
A retro inverse peptide is a peptide with a reversed sequence in all D amino acids. […] The EC50 of these reference compounds for ferroportin degradation was determined according to the activity assay described above.

[1] = Hepcidin analog peptides, read-out: Potency EC50

| Substance | EC50 [1] [nM] | further results |
| --- | --- | --- |
| Isovaleric acid-DTHFPCIIFGPRSRGWVC-K(PEG8)-NH2 [Compound 178] | 3 |  |
| Isovaleric acid-DTHFPCIIFSPRSKGWVCK-NH2 [Compound 106] | 44 |  |
| Isovaleric acid-DTHFPCIKAGPRSKGWVCK-NH2 [Compound 237] | 50 |  |
| Isovaleric acid-DTHFPCIKF-K(Ac)-PRSKGWVC-NH2 [Compound 253] | 29 |  |
| Isovaleric acid-DTHFPCIKF-K(Palm)-PRSKGWVCK-NH2 [Compound 195] | 9 |  |
| Isovaleric acid-DTHFPCIKF-K(butyric acid)-PRSKGWVC-NH2 [Compound 252] | 37 |  |
| Isovaleric acid-DTHFPCIKF-K(dapa-Palm)-PRSKGCK-NH2 [Compound 226] | 14 |  |
| Isovaleric acid-DTHFPCIKF-K(decanoic acid)-PRSKGWVC-NH2 [Compound 249] | 22 |  |
| Isovaleric acid-DTHFPCIKF-K(hexanoic acid)-PRSKGWVC-NH2 [Compound 251] | 21 |  |
| Isovaleric acid-DTHFPCIKF-K(isoglu-Palm)-PHSKECK-NH2 [Compound 358] | 6 |  |
| Isovaleric acid-DTHFPCIKF-K(isoglu-Palm)-PRSKGCK-NH2 [Compound 219] | 9 |  |
| Isovaleric acid-DTHFPCIKF-K(lauric acid)-PRSKGWVC-NH2 [Compound 248] | 10 |  |
| Isovaleric acid-DTHFPCIKF-K(mysteric acid)-PRSKGWVC-NH2 [Compound 247] | 7 |  |
| Isovaleric acid-DTHFPCIKF-K(octanoic acid)-PRSKGWVC-NH2 [Compound 250] | 30 |  |
| Isovaleric acid-DTHFPCIKF-NH2 [Compound 291] | 7 | EC50 (read-out: EC50 (nM) (n = 3), in vitro activity as in Example 2, peptide monomers and dimers dimerized through a single disulphide linkage, n = 3): 7 nM |
| Isovaleric acid-DTHFPCIKFC-NH2 [Compound 193] | 80 |  |
| Isovaleric acid-DTHFPCIKFCK-NH2 [Compound 192] | 48 |  |
| Isovaleric acid-DTHFPCIKFEP-K(dapa-Palm)-SKGCK-NH2 [Compound 227] | 10 |  |
| Isovaleric acid-DTHFPCIKFEP-K(isoglu-Palm)-SKGCK-NH2 [Compound 220] | 5 |  |
| Isovaleric acid-DTHFPCIKFEPHSKGCK-NH2 [Compound 263] | 62 |  |
| Isovaleric acid-DTHFPCIKFEPK(isoGlu-Palm)-SKGWECK-NH2 [Compound 242] | 8 |  |
| Isovaleric acid-DTHFPCIKFEPRCK-NH2 [Compound 361] | 29 |  |
| Isovaleric acid-DTHFPCIKFEPRECK-NH2 [Compound 359] | 64 |  |
| Isovaleric acid-DTHFPCIKFEPRS-K(dapa-Palm)-GCK-NH2 [Compound 228] | 7 |  |
| Isovaleric acid-DTHFPCIKFEPRS-K(isoglu-Palm)-GCK-NH2 [Compound 221] | 4 |  |

| Substance | EC50 [1] [nM] | further results |
| --- | --- | --- |
| Isovaleric acid-DTHFPCIKFEPRSK-K(dapa-Palm)-CK-NH2 [Compound 229] | 13 |  |
| Isovaleric acid-DTHFPCIKFEPRSK-K(isoglu-Palm)-CK-NH2 [Compound 222] | 4 |  |
| Isovaleric acid-DTHFPCIKFEPRSKECK-NH2 [Compound 355] | 48 |  |
| Isovaleric acid-DTHFPCIKFEPRSKGC-K(dapa-Palm)-K-NH2 [Compound 230] | 10 |  |
| Isovaleric acid-DTHFPCIKFEPRSKGC-K(isoglu-Palm)-NH2 [Compound 223] | 5 |  |
| Isovaleric acid-DTHFPCIKFEPRSKGCK-K(dapa-Palm)-NH2 [Compound 231] | 11 |  |
| Isovaleric acid-DTHFPCIKFEPRSKGCK-K(isoglu-Palm)-NH2 [Compound 224] | 4 |  |
| Isovaleric acid-DTHFPCIKFEPRSKGWCK-NH2 [Compound 183] | 17 |  |
| Isovaleric acid-DTHFPCIKFEPRSKGWTCK-NH2 [Compound 182] | 13 |  |
| Isovaleric acid-DTHFPCIKFEPRSKGWVCK-NH2 [Compound 181] | 15 | EC50 (in vitro activity (EC50) tested as in Example 2, read-out: In Vivo Activity EC50): 15 nM |
| Isovaleric acid-DTHFPCIKFEPRSKGWVCK-OH [Compound 238] | 47 |  |
| Isovaleric acid-DTHFPCIKFEPRSKKWVCK-NH2 [Compound 214] | 15 |  |
| Isovaleric acid-DTHFPCIKFGCK-NH2 [Compound 191] | 97 |  |
| Isovaleric acid-DTHFPCIKFGP-K(PEG8)-SKGWVCK-NH2 [Compound 151] | 13 |  |
| Isovaleric acid-DTHFPCIKFGP-K(Palm)-SKGWVCK-NH2 [Compound 196] | 2 |  |
| Isovaleric acid-DTHFPCIKFGPCK-NH2 [Compound 190] | 55 |  |
| Isovaleric acid-DTHFPCIKFGPKSKGWVCK-NH2 [Compound 112] | 15 |  |
| Isovaleric acid-DTHFPCIKFGPRCK-NH2 [Compound 189] | 36 |  |
| Isovaleric acid-DTHFPCIKFGPRS-K(Betaine)-GWVCK-NH2 [Compound 157] | 18 |  |
| Isovaleric acid-DTHFPCIKFGPRS-K(PEG8)-GWVCK-NH2 [Compound 152] | 16 |  |
| Isovaleric acid-DTHFPCIKFGPRS-K(Palm)-GWVCK-NH2 [Compound 197] | 1 |  |
| Isovaleric acid-DTHFPCIKFGPRSCK-NH2 [Compound 188] | 30 |  |
| Isovaleric acid-DTHFPCIKFGPRSKCK-NH2 [Compound 187] | 21 |  |
| Isovaleric acid-DTHFPCIKFGPRSKGWECK-NH2 [Compound 121] | 14 |  |
| Isovaleric acid-DTHFPCIKFGPRSKGWTCK-NH2 [Compound 154] | 18 |  |

| Substance | EC50 [1] [nM] | further results |
| --- | --- | --- |
| Isovaleric acid-DTHFPCIKFGPRSKGWVC-K(Betaine)-NH2 [Compound 159] | 17 |  |
| Isovaleric acid-DTHFPCIKFGPRSKGWVC-K(Palm)-NH2 [Compound 198] | 7 |  |
| Isovaleric acid-DTHFPCIKFK(isoGlu-Palm)-PRSKGWECK-NH2 [Compound 241] | 6 |  |
| Isovaleric acid-DTHFPCIKKEPHSKECK-NH2 [Compound 357] | > 1000 |  |
| Isovaleric acid-DTHFPCLIFGPRSKGWVCK-NH2 [Compound 93] | 19 |  |
| Isovaleric acid-DTHFPCSIFGPRSKGWVCK-NH2 [Compound 95] | 78 |  |
| Isovaleric acid-DTHFPCVIFGPRSKGWVCK-NH2 [Compound 94] | 41 |  |
| Isovaleric acid-DTHFPICIFGPRS-K(PEG4)-GWVC-NH2 [Compound 177] | 6 |  |
| Isovaleric acid-DTHFSCIIFGPRSKGWVCK-NH2 [Compound 107] | 50 |  |
| Isovaleric acid-DTKFPCIIFGPRSKGWVCK-NH2 [Compound 147] | 20 |  |
| Isovaleric acid-HFPCIIFGPRSKGWVCM-NH2 [Compound 134] | > 1000 |  |
| Isovaleric acid-HFPCIKFEPRSKGWVC-K(lauric acid)-NH2 [Compound 262] | 77 |  |
| Isovaleric acid-HFPCIKFEPRSKGWVC-K(octanoic acid)-NH2 [Compound 261] | > 300 |  |
| Octanoic acid-DTHFPCIIFGPRSRGWVCK-NH2 [Compound 88] | > 1000 |  |
| Octanoic acid-PEG11-DTHFPCIIFGPRSRGWVCK-NH2 [Compound 108] | > 1000 |  |
| Palm-PEG11-DTHFPCIIFGPRSRGWVCK-NH2 [Compound 89] | > 1000 |  |
| Valeric acid-DTHFPCIKFGPRSKGWVCK-NH2 [Compound 163] | 64 |  |
| [Ida]-TH-[Dpa]-[bhPro]-ICIFGPRSKGWVCM-NH2 [Compound 5] | 17 |  |
| [Ida]-THF-[bh-Pro]-CIIF-NH2 [Compound 285] | > 1000 |  |
| [Ida]-THFPCIIFGPRSRGWVCK-NH2 [Compound 110] | > 300 |  |
| [Ida]-THFPCIKFEPRSKGWVC-K(lauric acid)-NH2 [Compound 255] | 52 |  |
| [PEG25]-(DTHFPCIKF-NH2)2 [Compound 351] |  | EC50 (read-out: Log dilutions EC50 (nM) (n > 3) (converted), peptide dimers, various linkers at different positions): > 1000 nM |
| pGlu-THFPIC1IFVC2HRSKGC2YRRC1R-NH2 [Compound 40] | 260 |  |

Where two headings read alike, the source gives them in different places.
